Test results from patent publication US6034062A, “Bone morphogenetic protein (BMP)-9 compositions and their uses” (Genetics Institute, Inc., priority 1997, dated 2000).
Where two headings read alike, the source gives them in different places.

What was measured:
W-20 cells [1] = test: Osteocalcin RIA, W-20 cells; format: cell-based, mice; settings: 96 hours
Description: W-20 cells are plated at 10^6 cells per well in 24 well multiwell tissue culture dishes in 2 mls of DME containing 10% heat inactivated fetal calf serum, 2 mM glutamine. The cells are allowed to attach overnight in an atmosphere of 95% air 5% CO2 at 37° C.
The next day the medium is changed to DME containing 10% fetal calf serum, 2 mM glutamine and the test substance in a total volume of 2 ml. Each test substance is administered to triplicate wells. The test substances are incubated with the W-20 cells for a total of 96 hours with replacement at 48 hours by the same test medias.
At. the end of 96 hours, 50 μl of the test media is removed from each well and assayed for osteocalcin production using a radioimmunoassay for mouse osteocalcin. The details of the assay are described in the kit manufactured by Biomedical Technologies Inc., 378 Page Street, Stoughton, Mass. 02072. Reagents for the assay are found as product numbers BT-431 (mouse osteocalcin standard), BT-432 (Goat anti-mouse Osteocalcin), BT-431R (iodinated mouse osteocalcin), BT-415 (normal goat serum) and BT-414 (donkey anti goat IgG). The RIA for osteocalcin synthesized by W-20 cells in response to BMP treatment is carried out as described in the protocol provided by the manufacturer.
The values obtained for the test samples are compared to values for known standards of mouse osteocalcin and to the amount of osteocalcin produced by W-20 cells in response to challenge with known amounts of BMP-2.

W-20 cells [2] = settings: BMP-2 treatment of W-20 cells; cited from earlier work
W-20 cells [3] = settings: BMP-2 treatment of W-20 cells; cited from earlier work; remark: listed apart in the source
W-20 cells [4] = test: W-20 alkaline phosphatase assay; format: cell-based, mice; settings: for Absorbance Reading 405 nmeters: 24 hour incubation
Description: Use of the W-20 bone marrow stromal cells as an indicator cell line is based upon the conversion of these cells to osteoblast-like cells after treatment with BMP-2 [R. S. Thies et al., "Bone Morphogenetic Protein alters W-20 stromal cell differentiation in vitro", Journal of Bone and Mineral Research 5(2):305 (1990); and R. S. Thies et al., "Recombinant Human Bone Morphogenetic Protein 2 Induces Osteoblastic Differentiation in W-20-17 Stromal Cells", Endocrinology, 130(3):1318-1324 (1992)]. Specifically, W-20 cells are a clonal bone marrow stromal cell line derived from adult mice by researchers in the laboratory of Dr. D. Nathan, Children's Hospital, Boston, Mass. […] Furthermore, to date we have observed conversion of W-20 stromal cells to osteoblast-like cells only upon treatment with BMPs.
W-20 cells are plated into 96 well tissue culture plates at a density of 10,000 cells per well in 200 μl of media (DME with 10% heat inactivated fetal calf serum, 2 mM glutamine and 100 U/ml+100 μg/ml streptomycin. The cells are allowed to attach overnight in a 95% air, 5% CO2 incubator at 37° C.
The 200 μl of media is removed from each well with a multichannel pipettor and replaced with an equal volume of test sample delivered in DME with 10% heat inactivated fetal calf serum, 2 mM glutamine and 1% penicillin-streptomycin. Test substances are assayed in triplicate.
The test samples and standards are allowed a 24 hour incubation period with the W-20 indicator cells. After the 24 hours, plates are removed from the 37° C. incubator and the test media are removed from the cells.
The W-20 cell layers are washed 3 times with 200 μl per well of calcium/magnesium free phosphate buffered saline and these washes are discarded.
50 μl of glass distilled water is added to each well and the assay plates are then placed on a dry ice/ethanol bath for quick freezing. Once frozen, the assay plates are removed from the dry ice/ethanol bath and thawed at 37° C. This step is repeated 2 more times for a total of 3 freeze-thaw procedures. Once complete, the membrane bound alkaline phosphatase is available for measurement.
50 μl of assay mix (50 mM glycine, 0.05% Triton X-100, 4 mM MgCl2, 5 mM p-nitrophenol phosphate, pH=10.3) is added to each assay well and the assay plates are then incubated for 30 minutes at 37° C. in a shaking waterbath at 60 oscillations per minute.
At the end of the 30 minute incubation, the reaction is stopped by adding 100 μl of 0.2 N NaOH to each well and placing the assay plates on ice.
The spectrophotometric absorbance for each well is read at a wavelength of 405 nanometers. These values are then compared to known standards to give an estimate of the alkaline phosphatase activity in each sample. For example, using known amounts of p-nitrophenol phosphate, absorbance values are generated.
Absorbance values for known amounts of BMP-2 can be determined and converted to μmoles of p-nitrophenol phosphate cleaved per unit time as shown in Table II.

[5] = system: BMP-9 receptors expressed on HepG2 cells; test: 125I-BMP-9 binding to HepG2 cells; settings: 125I-BMP-9 and 250-fold excess of unlabeled ligand
Description: BMP-9 responsiveness in parenchymal liver cells is tested by screening four liver cell lines for their ability to bind iodinated, CHO-derived BMP-9. […] Specific binding of BMP-9 to HepG2 cells is carried out by incubating HepG2 cells grown to confluence in Dulbecco's Modified Eagle's Medium (DME) containing 10% heat-inactivated fetal calf serum (FCS) on gelatinized 6 well plates with 2 ng/ml ^125 I-BMP-9 and increasing concentrations of unlabelled BMP-9 in binding buffer (136.9 mM NaCl, 5.37 mM KCl, 1.26 mM CaCl2, 0.64 mM MgSO4, 0.34 mM Na2 HPO4, 0.44 mM KH2 PO4, 0.49 mM MgCl2, 25 mM HEPES and 0.5% BSA, pH 7.4) for 20 hours at 4° C. to achieve binding equilibrium. This incubation follows a one hour preincubation at 37° C. in binding buffer alone. For crosslinking experiments, the cells were incubated with 500 μM disuccinimidyl suberate for 20 minutes at […] following binding. Cell extracts were analyzed on SDS-PAGE. […] The curvilinear nature of the Scatchard plot indicates negative cooperativity among BMP-9 receptors or that HepG2 cells express at least two populations of BMP-9 receptors with different affinities. Crosslinking analysis on HepG2 cells with ^125 I-BMP-9 yields two binding proteins of apparent molecular weights of 54 and 80 kD. […]

W-20 cells [6] = settings: BMP-2 treatment of W-20 cells; cited from earlier work; remark: listed apart in the source
[7] = BMP-2 concentration 12.50 ng/ml
[8] = BMP-2 concentration 100.0 ng/ml

BMP-2: bone morphogenetic protein 2, standard in the W-20 assays
Osteocalcin synthesis (W-20 cells [1]; BMP-2 Concentration 2 ng/ml): 0.9 ng/well | Osteocalcin synthesis (W-20 cells [1]; BMP-2 Concentration 4 ng/ml): 0.8 ng/well | Osteocalcin synthesis (W-20 cells [1]; BMP-2 Concentration 8 ng/ml): 2.2 ng/well | Osteocalcin synthesis (W-20 cells [1]; BMP-2 Concentration 16 ng/ml): 2.7 ng/well | Osteocalcin synthesis (W-20 cells [1]; BMP-2 Concentration 31 ng/ml): 3.2 ng/well | Osteocalcin synthesis (W-20 cells [1]; BMP-2 Concentration 62 ng/ml): 5.1 ng/well | Osteocalcin synthesis (W-20 cells [1]; BMP-2 Concentration 125 ng/ml): 6.5 ng/well | Osteocalcin synthesis (W-20 cells [1]; BMP-2 Concentration 250 ng/ml): 8.2 ng/well | Osteocalcin synthesis (W-20 cells [1]; BMP-2 Concentration 500 ng/ml): 9.4 ng/well | Osteocalcin synthesis (W-20 cells [1]; BMP-2 Concentration 1000 ng/ml): 10.0 ng/well | alkaline phosphatase production (W-20 cells [2]): increased alkaline phosphatase production | PTH stimulated cAMP (W-20 cells [3]): induction of PTH stimulated cAMP | Alkaline phosphatase, umoles substrate per hour (W-20 cells [4]; BMP-2 concentration 1.56 ng/ml): 0.026 umoles substrate per hour | Absorbance Reading 405 nmeters (W-20 cells [4]; BMP-2 concentration 1.56 ng/ml): 0.696 | Alkaline phosphatase, umoles substrate per hour (W-20 cells [4]; BMP-2 concentration 3.12 ng/ml): 0.029 umoles substrate per hour | Absorbance Reading 405 nmeters (W-20 cells [4]; BMP-2 concentration 3.12 ng/ml): 0.765 | Alkaline phosphatase, umoles substrate per hour (W-20 cells [4]; BMP-2 concentration 6.25 ng/ml): 0.036 umoles substrate per hour | Absorbance Reading 405 nmeters (W-20 cells [4]; BMP-2 concentration 6.25 ng/ml): 0.923 | Alkaline phosphatase, umoles substrate per hour (W-20 cells [4]; [7]): 0.044 umoles substrate per hour | Absorbance Reading 405 nmeters (W-20 cells [4]; [7]): 1.121 | Alkaline phosphatase, umoles substrate per hour (W-20 cells [4]; BMP-2 concentration 25.0 ng/ml): 0.058 umoles substrate per hour | Absorbance Reading 405 nmeters (W-20 cells [4]; BMP-2 concentration 25.0 ng/ml): 1.457 | Alkaline phosphatase, umoles substrate per hour (W-20 cells [4]; BMP-2 concentration 50.0 ng/ml): 0.067 umoles substrate per hour | Absorbance Reading 405 nmeters (W-20 cells [4]; BMP-2 concentration 50.0 ng/ml): 1.662 | Alkaline phosphatase, umoles substrate per hour (W-20 cells [4]; [8]): 0.080 umoles substrate per hour | Absorbance Reading 405 nmeters (W-20 cells [4]; [8]): 1.977 | crossreactivity of BMP-9 receptors with unlabeled ligand [5]: limited crossreactivity | Osteocalcin synthesis (W-20 cells [6]): induction of osteocalcin synthesis

B1: BMP-2/6: printed as BMPs ... 2/6; unlabeled competing ligand, presumably BMP-2/BMP-6 heterodimer (protein)
chain 1: QAKHKQRKRLKSSCKRHPLYVDFSDVGWNDWIVAPPGYHAFYCHGECPFPLADHLNSTNHAIVQTLVNSVNSKIPKACCVPTELSAISMLYLDENEKVVLKNYQDMVVEGCGCR
chain 2: SASSRRRQQSRNRSTQSQDVARVSSASDYNSSELKTACRKHELYVSFQDLGWQDWIIAPKGYAANYCDGECSFPLNAHMNATNHAIVQTLVHLMNPEYVPKPCCAPTKLNAISVLYFDDNSNVILKKYRNMVVRACGCH
crossreactivity of BMP-9 receptors with unlabeled ligand [5]: no crossreactivity
